The values below are quoted from earlier work in US7588892B2, “Reagent sets and gene signatures for renal tubule injury” (Entelos, Inc., priority 2004, dated 2009).

For this series, the system named is renal tubules. The conditions noted are these: rats, daily dose, route and vehicle of Table 2, day 5/7; absence of nephrotoxicity asserted from PDR and published literature; no histological injury on day 5/7; cited from earlier work.

Take `Cc1cc(=O)n(-c2ccccc2)n1C` [ANTIPYRINE]: the “Class (nephrotoxic / non-nephrotoxic training label)” value is on record as “Non-nephrotoxic”.
